SMILES strings stand for the structures.

What is called IC50 is the concentration at which inhibition is half-maximal. High values mean weaker potency, low ones greater potency.

The target in the experiment is Protein farnesyltransferase (Homo sapiens, UniProt P49354+P49356). Briefly: Inhibition of [3H]FPP incorporation into H-ras CVLS by Farnesyltransferase. It is filed as protein-complex assay.
Take `NC(=O)N1CCC(CC(=O)N2CCC([C@H]3c4ncc(Br)cc4C=Cc4cc(Cl)cc(Br)c43)CC2)CC1`: half-maximal inhibition (IC50) was put at 16 nM.

Take `NC(=O)N1CCC(CC(=O)N2CCC([C@@H]3c4ncc(Br)cc4C=Cc4cc(Cl)cc(Br)c43)CC2)CC1`: the IC50 is 0.4 nM. As for `CS(=O)(=O)N1CCC([C@@H]2c3ncc(Br)cc3C=Cc3cc(Cl)cc(Br)c32)CC1`, the IC50 stood at 3.3 nM.

The record behind these values is ChEMBL document CHEMBL1138707, “Bridgehead modification of trihalocycloheptabenzopyridine leads to a potent farnesyl protein transferase inhibitor with improved oral metabolic stability” (Bioorg Med Chem Lett, 2004).
